By UniProt entry, the sequences of proteins in these tests, tags left out.
Melanocortin receptor 4 (Homo sapiens), P32245, UniProt P32245, whole entry, looked up: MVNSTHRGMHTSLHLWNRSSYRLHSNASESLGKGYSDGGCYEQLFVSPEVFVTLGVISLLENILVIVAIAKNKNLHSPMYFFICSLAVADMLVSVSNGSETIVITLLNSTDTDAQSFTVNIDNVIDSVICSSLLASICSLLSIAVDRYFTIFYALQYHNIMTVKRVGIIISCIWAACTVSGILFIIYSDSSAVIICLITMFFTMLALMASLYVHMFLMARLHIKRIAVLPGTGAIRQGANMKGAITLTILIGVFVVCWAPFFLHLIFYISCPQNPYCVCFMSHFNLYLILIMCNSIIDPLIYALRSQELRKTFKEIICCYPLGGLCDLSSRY
Neuropilin-1 (Homo sapiens), O14786, UniProt O14786, whole entry, looked up: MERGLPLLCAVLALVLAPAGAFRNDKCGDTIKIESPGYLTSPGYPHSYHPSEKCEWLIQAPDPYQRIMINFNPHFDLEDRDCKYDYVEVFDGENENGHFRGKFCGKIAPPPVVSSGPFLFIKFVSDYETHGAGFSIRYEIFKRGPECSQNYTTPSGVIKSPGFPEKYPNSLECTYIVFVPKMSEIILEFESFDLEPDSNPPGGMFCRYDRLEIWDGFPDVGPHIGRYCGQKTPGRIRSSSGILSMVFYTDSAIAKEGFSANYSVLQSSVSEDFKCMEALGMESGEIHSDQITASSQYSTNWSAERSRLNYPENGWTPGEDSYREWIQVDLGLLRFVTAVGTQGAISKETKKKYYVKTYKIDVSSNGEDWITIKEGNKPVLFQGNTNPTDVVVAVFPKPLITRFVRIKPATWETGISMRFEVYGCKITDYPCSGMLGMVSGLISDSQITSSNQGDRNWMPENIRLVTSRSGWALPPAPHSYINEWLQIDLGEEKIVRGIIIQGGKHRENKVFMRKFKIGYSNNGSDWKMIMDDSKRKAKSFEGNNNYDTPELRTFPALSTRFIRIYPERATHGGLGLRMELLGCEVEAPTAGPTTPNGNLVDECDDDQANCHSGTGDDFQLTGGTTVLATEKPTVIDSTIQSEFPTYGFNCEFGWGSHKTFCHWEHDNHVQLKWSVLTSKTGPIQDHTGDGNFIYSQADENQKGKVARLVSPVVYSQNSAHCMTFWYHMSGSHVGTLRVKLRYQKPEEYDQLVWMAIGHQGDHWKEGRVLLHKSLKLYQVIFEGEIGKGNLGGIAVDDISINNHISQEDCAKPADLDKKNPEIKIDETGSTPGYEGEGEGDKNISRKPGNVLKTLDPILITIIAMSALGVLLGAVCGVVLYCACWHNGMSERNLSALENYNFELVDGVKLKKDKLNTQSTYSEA
ADP-ribosylation factor GTPase-activating protein 1 (Rattus norvegicus), Q62848, UniProt Q62848, whole entry, looked up: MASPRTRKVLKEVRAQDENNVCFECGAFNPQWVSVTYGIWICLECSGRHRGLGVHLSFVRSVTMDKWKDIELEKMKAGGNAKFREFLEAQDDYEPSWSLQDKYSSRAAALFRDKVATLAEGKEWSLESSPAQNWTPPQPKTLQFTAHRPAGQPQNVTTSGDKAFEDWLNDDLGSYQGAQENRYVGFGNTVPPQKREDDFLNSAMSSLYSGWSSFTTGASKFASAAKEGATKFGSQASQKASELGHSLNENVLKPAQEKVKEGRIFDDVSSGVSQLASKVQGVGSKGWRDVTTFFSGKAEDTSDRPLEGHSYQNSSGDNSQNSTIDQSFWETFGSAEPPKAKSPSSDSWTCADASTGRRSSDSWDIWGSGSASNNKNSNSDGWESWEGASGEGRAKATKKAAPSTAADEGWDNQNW

# Rows were chosen to be rich in hits. Some 2.3% of all compounds tested hit in one or more screens of this group.
# MC4R antag cAMP: MC4R antagonists of cAMP signaling, primary screen, cell-based, TR-FRET, antagonist arm of biased-ligand search. Melanocortin receptor 4 (Homo sapiens), P32245. MC4R-expressing cells, MTII-stimulated cAMP, LANCE TR-FRET. inhibition, % at 6.5 µM. hit rate 0.48% among 360,000;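 active means inhibition above its plate's cutoff, the mean of tested wells on that plate plus 3 SD, cut at about 29% in these data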;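 further: 0% = Melanotan II alone and 100% = Melanotan II plus saturating MCL0020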
#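 System: U2OS cells stably expressing human melanocortin 4 receptor (MC4R). Reagent: Melanotan II challenge after compound preincubation. Doses: 6.5 µM. Times: 30-min compound, 1-h challenge, 1-h detection, room temperature. Measured by: TR-FRET with Eu-cAMP and labeled anti-cAMP, 671 nm. Replicates: singlicate.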
# ASAP1 inh: inhibitors of human ASAP1 ArfGAP activity, primary screen, biochemical, fluorescence polarization | ASAP1-stimulated ARF1 GTP hydrolysis, GDP FP detection | inhibition, % at 16.5 µM | hit rate 0.19% among 360,000 | AID 624377, 2012; in the data active means inhibition above about 25%;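 further: 0% = vehicle with enzyme and substrate and 100% = no enzyme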
# CendR NRP1 mod: modulators of CendR peptide binding to NRP-1, primary screen, biochemical, fluorescence polarization, uHTS. FAM-RPARPAR peptide binding to NRP-1. hit rate 0.85% among 360,000. AID 602438, 2012. inhibition, % at 25 µM. Neuropilin-1 (Homo sapiens), O14786;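 active means inhibition or corrected inhibition above about 18%, plus a signal ratio from 0.5 to 1.5, limit read from the data, passing the limit was not always enough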
# ARFGAP1 inh: inhibitors of rat ARFGAP1 GAP activity, primary screen, biochemical, fluorescence polarization, GDP tracer; ADP-ribosylation factor GTPase-activating protein 1 (Rattus norvegicus), Q62848; Arfgap1-stimulated ARF1 GTP hydrolysis, GDP FP detection; inhibition, % at 16.5 µM; hit rate 0.26% among 360,000; AID 651572, 2012;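 active means inhibition above a per-plate limit, mean inhibition of low control wells plus 3 SD, cut at about 25% in these data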;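 further: 0% = DMSO wells with enzyme and 100% = wells lacking Arfgap1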
#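 Material: rat Arfgap1 GAP domain (His6, aa 1-136), purified enzyme. Also added: human ARF1(Δ1-17)-GTP substrate. Compound dosing: 16.5 µM single point, 1.26% DMSO. Timing: enzyme reaction 120 min at 25 °C after 20 min preincubation. Signal: GDP detection by fluorescence polarization. Read-out basis: percent inhibition of GAP-stimulated GDP formation, scaled between DMSO and no-Arfgap1 medians.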
# MC4R barr agon: MC4R agonists recruiting beta-arrestin, primary screen, cell-based, luminescence, agonist arm of biased-ligand search; U2OS MC4R beta-arrestin complementation; percent of melanotan II response, DMSO zero; hit rate 0.98% among 360,000; Melanocortin receptor 4 (Homo sapiens), P32245; activation, % at 8.9 µM;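 active means activation above a per-plate cutoff, the mean activation of sample wells on that plate plus 3 SD, cut at about 8% in these data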
# UUG fidelity: modulators of yeast start codon fidelity, primary screen, whole organism, S. cerevisiae, single point, plate reader | AID 602363, 2012 | S. cerevisiae UUG-firefly luciferase reporter, luminescence/redox ratio | activity score, % at 18.7 µM | hit rate 0.13% among 350,000;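 active = replicate mean at a twofold rise or more, about +100% in these data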;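 also: firefly luciferase made from a UUG start codon reports start codon fidelity; reporter light over untreated wells divided by growth signal over untreated wells; some hits fall short of that in this replicate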
# * marks the source's active call; other numbers are inactive results; . = no result.
Structure	MC4R antag cAMP	ASAP1 inh	CendR NRP1 mod	ARFGAP1 inh	MC4R barr agon	UUG fidelity
Cc1cc2cc(CNC(=O)c3ccc4c(c3)OCO4)ccc2n1C	-2	8	20*	-6	-2	-2
Cc1cc2cc(CNC(=O)c3ccco3)ccc2n1C	-1	-6	31*	1	0	-7
CCOc1ccccc1OCC(=O)NN1Cc2ccccc2C1=N	-2	2	19*	-6	-1	5
O=C(Nc1ccncc1)c1cc(-c2ccccc2)nc2ccccc12	17	-3	4	-7	9.3*	-7
Cc1cccc(-c2cc(C(=O)Nc3ccncc3)c3ccccc3n2)c1	5	13	-4	3	12*	-20
COc1ccc(NC(=O)c2cc(-c3cccnc3)nc3c(C)c(C)ccc23)c(OC)c1	2	10	-13	18	-1	-13
Cc1ccc(-c2cc(C(=O)N/N=C/c3cccnc3)c3ccccc3n2)cc1C	7	18	26*	13	-3	-21
COc1cccc(NC(=O)c2cc(-c3cccnc3)nc3c(Cl)cccc23)c1	5	6	-8	1	12*	-2
C[C@H](CO)N1C[C@H](C)[C@@H](CN(C)S(=O)(=O)c2ccc(Cl)cc2)Oc2ccc(NS(=O)(=O)c3ccc(F)cc3)cc2CC1=O	.	.	.	.	.	8
O=C(Cc1ccccc1)N[C@H]1C=C[C@@H](CC(=O)N2CCOCC2)O[C@H]1CO	.	.	.	.	.	14
C[C@H]1CN([C@@H](C)CO)C(=O)Cc2cc(NC(=O)CCCCCC(=O)Nc3ccccc3N)ccc2O[C@@H]1CN(C)C(=O)Nc1ccc2c(c1)OCO2	.	.	.	.	.	28
Cc1cccc(-c2cc(C(=O)Nc3c(C)n(C)n(-c4ccccc4)c3=O)c3ccccc3n2)c1	4	-2	33*	10	-2	-5
O=C(NCCCN1CCCCCC1)c1ccc(CS(=O)(=O)Cc2ccccc2F)o1	5	2	30*	14	-2	-14
COC(=O)c1c(C(=O)OC)c(-c2ccc(Cl)c(Cl)c2)n2c1CCC2	0	.	23*	.	1	.
COC(=O)c1c(C(=O)OC)c(-c2ccc(C)cc2)n2c1CCC2	19	3	2	7	-2	-9
Cn1cc(-c2ccc(C(=O)Nc3cccc(Oc4ccccc4)c3)c3occc23)cn1	7	-5	-2	3	9.2*	1
COc1ccc(-c2ccc(C(=O)Nc3cccc(Oc4ccccc4)c3)c3occc23)c(C)c1	2	-1	8	5	-1	-11
COc1ccccc1NC(=O)c1ccccc1Oc1ccccc1	3	3	26*	4	3	8
COc1ccccc1NC(=O)NC(=O)c1ccccc1	0	-18	8	-2	8.8*	-10
COc1ccccc1NC(=O)NC(N)=O	8	-2	0	4	3	-7
COc1ccc(NC(=O)c2ccccc2Oc2ccccc2)c(OC)c1	1	3	6	6	0	-11
CCC1(CC)NC(=O)N(CC(=O)OCC(=O)Nc2cc(OC)ccc2OC)C1=O	-1	2	24*	2	-1	-14
CCC1(CC)NC(=O)N(CC(=O)OCC(=O)Nc2ccc(F)c(F)c2F)C1=O	5	-15	1	2	2	.
CNC(=O)C[C@H]1CC[C@@H]2[C@@H](COc3ccc(NC(=O)Nc4cccc(Cl)c4)cc3C(=O)N2C)O1	.	.	.	.	.	18
Cc1ccc(CNC(=O)C2CCCN(S(=O)(=O)N3CCC(C)CC3)C2)cc1 (centres undefined)	7	-12	-4	-8	-1	-15
CCc1ccc(CNC(=O)C2CCCN(S(=O)(=O)N3CC(C)CC(C)C3)C2)cc1 (centres undefined)	-1	-3	22*	5	7	-3

# Record cards (already shown).
# CCc1ccc(CNC(=O)C2CCCN(S(=O)(=O)N3CC(C)CC(C)C3)C2)cc1 (centres undefined) is entered as MC4R antag cAMP: -1; ASAP1 inh: -3; CendR NRP1 mod: 22*; ARFGAP1 inh: 5; MC4R barr agon: 7; UUG fidelity: -3
# Cc1ccc(CNC(=O)C2CCCN(S(=O)(=O)N3CCC(C)CC3)C2)cc1 (centres undefined) is entered as MC4R antag cAMP: 7; ASAP1 inh: -12; CendR NRP1 mod: -4; ARFGAP1 inh: -8; MC4R barr agon: -1; UUG fidelity: -15

# Screening data (PubChem)
